# Results taken from PubChem BioAssay AID651647 (Sanford-Burnham Center for Chemical Genomics, 2012).
# This is a selection; strong and weak results do not stand in their true shares. Activity calls are given as the source filed them.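 Rule for the calls: active = GFP/RFP ratio change of at least 30% with cell ATP level not reduced by more than half and red fluorescence within 50% of control; inactive = the rest, inconclusive results apart.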
# Target: Matrix metalloproteinase-14 (Homo sapiens) (UniProt P50281)
# Assay: blockers of MT1-MMP proenzyme processing, primary screen, HT1080 RFP-PRO-GFP cells, GFP/RFP fluorescence (AID 651647)
# Conditions: overnight, at 20 µM, stronger effect = higher value, percent of plate control window, DMSO zero
# Procedure, shortened: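 Test system: HT1080 cells expressing an RFP-PRO-GFP fluorescent reporter construct / Compound dosing: single-point 20 µM compound, 1% DMSO / Schedule: cells overnight before dosing, compound overnight, 37 °C, 5% CO2 / Evaluation: GFP/RFP fluorescence ratio / Control set: DMSO and RFP-L50D-GFP cell wells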
row,SMILES,GFP/RFP ratio change
1,O=C(OCCCN1CCCC1)C(O)(c1ccccc1)C1CCCCC1 (centres undefined),inactive: 1.51%
2,CCN(CC)CC(O)COC(=O)C(O)(c1ccccc1)C1CCCCC1 (centres undefined),inactive: -2.61%
3,COc1ccc(OP(C)(=O)Nc2ccc(Br)cc2)cc1 (centres undefined),inactive: 10.7%
4,CP(=O)(Nc1ccccn1)Oc1ccc(Cl)cc1 (centres undefined),inactive: -0.454%
5,CCOP(C)(=S)SCC(=O)NC(C)C(=O)O (centres undefined),inactive: -0.468%
6,CCOC(=O)c1ccc(NP(C)(=O)Oc2ccc(OC)cc2)cc1 (centres undefined),inactive: 4.51%
7,O=[N+]([O-])c1cc([N+](=O)[O-])c(O)c([N+](=O)[O-])c1.c1ccc(Oc2ccncc2)cc1,inactive: 0.833%
8,CCc1ccc(OP(C)(=O)N2CCN(c3ccc([N+](=O)[O-])cc3)CC2)cc1 (centres undefined),inactive: -0.606%
9,CP(=O)(NC(=O)Nc1ccccc1)Oc1ccccc1 (centres undefined),inactive: -1.81%
10,Cc1cc(C)cc(OP(C)(=O)Nc2ccc(SC(F)(F)F)cc2)c1 (centres undefined),inactive: -5.26%
11,Cc1ccc(Nc2c([N+](=O)[O-])cc([N+](=O)[O-])cc2[N+](=O)[O-])cc1,inactive: 11.6%
12,Cc1cccc(C)c1OP(C)(=O)Nc1ccc(SC(F)(F)F)cc1 (centres undefined),inactive: -1.4%
13,CP(=O)(Nc1ccc(SC(F)(F)F)cc1)Oc1ccc(Cl)cc1 (centres undefined),inactive: 2.09%
14,CP(=O)(Oc1ccccc1)OC(c1ccccc1)C(F)(F)F (centres undefined),inactive: -1.57%
15,COc1ccccc1OP(C)(=O)Nc1ccccc1 (centres undefined),inactive: -4.92%
16,CP(=O)(Nc1ccccc1Br)Oc1ccccc1 (centres undefined),inactive: 5.74%
17,CP(=S)(Nn1cnnc1)Oc1ccccc1 (centres undefined),inactive: 1.55%
18,COc1ccccc1OP(C)(=O)Nc1cc(Cl)ccc1C (centres undefined),inactive: 3.56%
19,COc1ccc(OP(C)(=O)Nc2cccc(F)c2)cc1 (centres undefined),inactive: -0.881%
20,Cc1cc(C)cc(OP(C)(N)=O)c1 (centres undefined),inactive: -2.37%
21,CCOC(=O)c1ccc(NP(C)(=O)Oc2ccccc2)cc1 (centres undefined),inactive: 1.21%
22,COc1ccccc1OP(C)(=O)Nc1ccc(C)cc1 (centres undefined),inactive: 0.442%
23,Cc1ccc(NP(C)(=O)Oc2ccccc2)c(C)c1 (centres undefined),inactive: 3.47%
24,CC(C)(C)c1ccc(OP(C)(=O)Nc2ccc(SC(F)(F)F)cc2)cc1 (centres undefined),inactive: -6.76%
25,Cc1cccc(C)c1OP(C)(N)=O (centres undefined),inactive: -0.615%

row,SMILES,GFP/RFP ratio change
1,O=[N+]([O-])c1ccc2c(c1)C=Nc1ccccc1O2,inactive: 1.39%
2,O=[N+]([O-])c1cc([N+](=O)[O-])c(Nc2cccnc2)c([N+](=O)[O-])c1,inactive: 6.57%
3,COc1ccccc1-c1ccccn1.O=[N+]([O-])c1cc([N+](=O)[O-])c(O)c([N+](=O)[O-])c1,inactive: 7.05%
4,CCN(CC)CCCOC(=O)C(O)(c1ccccc1)c1ccccc1,inactive: -0.4%
5,CP(=O)(Nc1cccc(Br)c1)Oc1ccccc1 (centres undefined),inactive: -4.67%
6,Cc1cc(C)cc(OP(C)(=O)Nc2ccccn2)c1 (centres undefined),inactive: -0.531%
7,Cc1ccc(C)c(NP(C)(=O)Oc2ccccc2)c1 (centres undefined),inactive: -0.743%
8,Cc1cc(C)cc(OP(C)(=O)Nc2ccc(C)cc2C)c1 (centres undefined),inactive: 5.21%
9,CCOC(=O)c1ccc(NP(C)(=O)Oc2cc(C)cc(C)c2)cc1 (centres undefined),inactive: 3.04%
10,COc1ccccc1OP(C)(=O)Nc1cccc(Br)c1 (centres undefined),inactive: 0.851%
11,CC1=NCCc2c1[nH]c1ccccc21.O=[N+]([O-])c1cc([N+](=O)[O-])c(O)c([N+](=O)[O-])c1,inactive: -2.42%
12,O=C(O)c1cccc(Nc2c([N+](=O)[O-])cc([N+](=O)[O-])cc2[N+](=O)[O-])c1,inactive: 2.9%
13,CP(=O)(Nc1ccc(SC(F)(F)F)cc1)Oc1ccccc1 (centres undefined),inactive: 4.7%
14,CCCOc1ccc(NP(C)(=O)Oc2ccc(Cl)cc2)cc1 (centres undefined),inactive: 9.06%
15,COc1ccc(-c2ccccn2)cc1.O=[N+]([O-])c1cc([N+](=O)[O-])c(O)c([N+](=O)[O-])c1,inactive: 13.8%
16,COc1ccccc1OP(C)(=O)Nc1c(C)cccc1C (centres undefined),inactive: 3.93%
17,CN1CCCCC1COC(=O)C1(O)c2ccccc2CCc2ccccc21 (centres undefined),inactive: -20.7%
18,O=[N+]([O-])c1cc([N+](=O)[O-])c(Nc2nnnn2CCO)c([N+](=O)[O-])c1,inactive: 11.3%
19,CC1=C2N=C(C=C3N=C(C(C)=C4[N-][C@@](C)([C@@H]5N=C1[C@](C)(CCC(=O)NC[C@@H](C)OP(=O)([O-])O[C@H]1[C@@H](O)[C@@H](n6cnc7cc(C)c(C)cc76)O[C@@H]1CO)[C@H]5CC(N)=O)[C@@](C)(CC(N)=O)[C@@H]4CCC(N)=O)[C@@](C)(CC(N)=O)[C@@H]3CCC(N)=O)C(C)(C)[C@@H]2CCC(N)=O.[C-]#N.[Co+3],inactive: 6.21%
20,CCOC(=O)C(CC)C1=NC(C)(C)Cc2ccccc21.O=[N+]([O-])c1cc([N+](=O)[O-])c(O)c([N+](=O)[O-])c1 (centres undefined),inactive: 0.896%
21,Cc1nc2ccc3ccccc3c2s1.O=[N+]([O-])c1cc([N+](=O)[O-])c(O)c([N+](=O)[O-])c1,inactive: 1.15%
22,O=[N+]([O-])c1cc([N+](=O)[O-])c(-c2cnn(-c3ccccc3)c2)c([N+](=O)[O-])c1,inactive: -1.63%
23,CN(Cc1cccnc1)C(=O)COc1ccc(Cl)c(Cl)c1.O=[N+]([O-])c1cc([N+](=O)[O-])c(O)c([N+](=O)[O-])c1,inactive: 3.87%
24,O=[N+]([O-])c1cc([N+](=O)[O-])c(-n2nnc3ccccc32)c([N+](=O)[O-])c1,inactive: 2.72%
